Reference: PMC7068811 (Frontiers in Immunology, 2020)

Test system: PD1-overexpressing Jurkat cells
Test: PD-L1-Fc binding to PD1-overexpressing Jurkat cells
Type: cell-based
Settings: detection with anti-human Fc AF647, MFI, flow cytometry
Procedure: The Jurkat T-cell line that was used in competitive inhibition was a recombinant Jurkat T-cell line that was purchased from Promega (Madison, WI, USA; Cat. 60535) and was cultured according to the manufacturer's instructions. This cell line expressed the firefly luciferase gene under the control of the nuclear factor of activated T cells (NFAT) response elements and overexpressed human PD-1 (Programmed Cell Death 1, GenBank Accession #NM_005018). PD1 protein expression was detected using anti-human PD1 conjugated to allophycocyanin (APC) (BioLegend, San Diego, CA, USA). Jurkat cells were added to wells of a 96-well plate. An 11-point dilution series of each peptide starting at 10 μM was prepared. Peptide dilutions were added to wells containing 50,000 Jurkat cells per well and incubated for 30 min on ice. […] Cells were then washed with staining buffer and incubated with anti-human IgG conjugated to AF647 (Jackson ImmunoResearch, West Grove, PA, USA) for 30 min on ice. Cells were washed and re-suspended with staining buffer and analyzed by flow cytometry.
Different concentrations of PD-L1-Fc fusion protein were incubated with Jurkat cells that overexpress PD1. Binding of PD-L1-Fc was detected with anti-human Fc antibody conjugated to AF647. Mean fluorescence intensities were measured by flow cytometry. […]

Substance: PD-L1-Fc: recombinant human PDL1-Fc fusion protein (Life Technologies)
- binding of PD-L1-Fc to PD1-overexpressing Jurkat cells: in a dose-dependent manner
